Antibody variant affinities, Ab-14 heavy chain, assay B

Data: MIT Lincoln Laboratory AlphaSeq set, Li et al. 2023, doi:10.1038/s41467-023-39022-2, as distributed in FLAb.

Binding partner: SARS-CoV-2 spike HR2 peptide, sequence PDVDLGDISGINAS.

Parent scFv Ab-14: VH joined to VL by a (GGGGS)3 linker. Changes lie in the heavy chain CDRs alone.
VH: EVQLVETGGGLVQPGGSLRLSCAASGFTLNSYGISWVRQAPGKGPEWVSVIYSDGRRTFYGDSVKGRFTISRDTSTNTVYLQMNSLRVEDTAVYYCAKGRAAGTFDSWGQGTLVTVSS
VL: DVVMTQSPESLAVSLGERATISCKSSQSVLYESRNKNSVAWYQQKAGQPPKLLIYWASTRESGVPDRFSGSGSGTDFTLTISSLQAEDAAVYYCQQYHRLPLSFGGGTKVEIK

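The variants were designed computationally from a first round of random CDR variants and then made and measured. Group labels follow the data file (Ctrl: baseline library sampled from a position-specific scoring matrix, with some repeated check sequences; GP: Gaussian process model; GPLM: also part of the Gaussian process libraries; HC: hill climbing; Gen: genetic algorithm; a sequence that several methods proposed may carry one label only). In AlphaSeq, yeast of one mating type display the scFv and yeast of the other type display the target. Pairs that bind mate more often; barcode pairs of the diploids are counted by sequencing. Each replicate has its own calibration line, from reference interactions of the BCL2 family. Mating was done six times.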

Positions count from residue 1 of the parent VH; N30S puts S in place of N. The read-out is the apparent dissociation constant on a log10 scale (nM): the lower, the stronger. Replicates are averaged; those with no signal do not enter the mean. An entry "n.d." has no value in the source: the pair was not observed among the diploids in that replicate. This suggests poor binding but is not conclusive. A sequence measured in both rounds can read differently, since the two assays cover different ranges. Three control strains display no target. For all heavy chain designs, 1% of the pairings with them gave a signal, with a median of 2.08 and one signal in twenty below 0.84, so weak values seen in few replicates may be background. For each scFv, signals with the empty controls are counted beside the result, with their mean in brackets. The authors' rule: three or more of the six replicates give a measured affinity, fewer mean a poor binder. A sequence that the file lists under several names has all its replicates listed entry by entry, parted by semicolons.

changes,group,"log10 Kd, replicates",mean log10 Kd (nM),empty controls
N30S+S31D+R100P+A101S+A102S+G103A,Ctrl,n.d. / n.d. / n.d. / n.d. / n.d. / n.d.,n.d.,0 of 18
L29I+A102C+D106E,Ctrl,n.d. / n.d. / n.d. / n.d. / 1.78 / n.d.,1.78,0 of 18
S53A+R56V+V64Y+R100S+G103I,Ctrl,n.d. / n.d. / n.d. / n.d. / n.d. / n.d.,n.d.,0 of 18
S53A+G99W+S107H,Ctrl,n.d. / n.d. / n.d. / n.d. / n.d. / n.d.,n.d.,1 of 18 (3.51)
N30D+R56Y,Ctrl,0.96 / n.d. / n.d. / 0.81 / 0.60 / n.d.,0.79,0 of 18
R100E+A101F,Ctrl,n.d. / n.d. / n.d. / n.d. / n.d. / n.d.,n.d.,0 of 18
T28Q+R56Q+A101P,Ctrl,n.d. / n.d. / n.d. / n.d. / n.d. / n.d.,n.d.,2 of 18 (2.43)
F59E+R100K+S107G,Ctrl,n.d. / n.d. / n.d. / n.d. / n.d. / n.d.,n.d.,0 of 18
G61H+S63E,Ctrl,n.d. / n.d. / n.d. / n.d. / n.d. / 3.84,3.84,0 of 18
N30S+S31E+S53A+R100K+T104Y,Ctrl,n.d. / n.d. / 2.83 / n.d. / n.d. / n.d.,2.83,2 of 18 (2.33)
R100Y+D106S,Ctrl,n.d. / n.d. / n.d. / n.d. / n.d. / n.d.,n.d.,0 of 18
R56K+G61S+K65E+A101T,Ctrl,1.45 / 0.85 / 1.65 / 0.89 / 0.97 / 1.62,1.24,0 of 18
L29N+S31E,Ctrl,n.d. / n.d. / n.d. / n.d. / n.d. / n.d.,n.d.,0 of 18
R56F+G61H+S63A+A101G+F105T,Ctrl,n.d. / n.d. / n.d. / n.d. / n.d. / n.d.,n.d.,0 of 18
S35V+G103C,Ctrl,n.d. / n.d. / n.d. / n.d. / n.d. / n.d.,n.d.,0 of 18
I51M+G61A+G99A+R100E+A101G+D106V,Ctrl,n.d. / n.d. / n.d. / n.d. / n.d. / n.d.,n.d.,0 of 18
S31E+R100G,Ctrl,1.58 / 1.43 / 0.86 / 1.31 / 2.56 / 1.75,1.58,0 of 18
R100Q+T104I,Ctrl,n.d. / 2.02 / n.d. / 1.79 / 2.33 / n.d.,2.05,0 of 18
T28N+S31E,Ctrl+GPLM_Gen,0.28 / 0.03 / -0.06 / 0.39 / -0.28 / 0.00; n.d. / n.d. / 1.46 / n.d. / n.d. / n.d.,0.26,0 of 36
S31D+D62Q+K65V+S107T,Ctrl,n.d. / n.d. / n.d. / 1.54 / n.d. / n.d.,1.54,0 of 18
T28V,Ctrl,n.d. / n.d. / n.d. / n.d. / n.d. / n.d.,n.d.,0 of 18
L29I+R56W+A101C,Ctrl,n.d. / n.d. / n.d. / n.d. / n.d. / n.d.,n.d.,0 of 18
G61N+S107P,Ctrl,n.d. / n.d. / 2.17 / n.d. / n.d. / n.d.,2.17,0 of 18
T28E+L29R+F59W+G61A,Ctrl,n.d. / n.d. / n.d. / n.d. / n.d. / n.d.,n.d.,0 of 18
T28H+I34V+R100T,Ctrl,n.d. / n.d. / n.d. / 0.89 / 1.16 / n.d.,1.03,0 of 18
N30D+G61Q,Ctrl+GP_HC,0.92 / n.d. / n.d. / 1.78 / -0.40 / 1.04; 0.61 / 1.14 / n.d. / n.d. / 1.16 / 0.89,0.89,0 of 36
R100I+A102T,Ctrl,n.d. / n.d. / n.d. / n.d. / n.d. / n.d.,n.d.,0 of 18
L29M+A101N+S107E,Ctrl,n.d. / n.d. / n.d. / n.d. / 1.49 / n.d.,1.49,0 of 18
F27E+T58K+G61F+K65R+A102S,Ctrl,n.d. / n.d. / n.d. / n.d. / n.d. / n.d.,n.d.,0 of 18
F59Q+T104A,Ctrl,n.d. / n.d. / n.d. / n.d. / n.d. / n.d.,n.d.,0 of 18
F27L+S31D+A102D,Ctrl,n.d. / n.d. / n.d. / n.d. / n.d. / n.d.,n.d.,0 of 18
R100S+A102M+G103I,Ctrl,n.d. / n.d. / n.d. / n.d. / n.d. / n.d.,n.d.,0 of 18
V50Y+F105D,Ctrl,n.d. / n.d. / n.d. / n.d. / n.d. / n.d.,n.d.,0 of 18
N30L+A101E,Ctrl,n.d. / n.d. / 1.27 / 0.93 / 1.34 / 1.53,1.27,0 of 18
S53A+T58V+A101W+A102G,Ctrl,n.d. / 1.41 / 1.14 / 1.39 / 1.71 / 1.38,1.41,0 of 18
R56L+G61A,Ctrl+GPLM_Gen,0.43 / n.d. / 1.17 / 0.49 / 1.25 / n.d.; 0.63 / 0.88 / 0.33 / 0.23 / 0.81 / 0.50,0.67,0 of 36
T28N+S31T,Ctrl,n.d. / n.d. / n.d. / n.d. / n.d. / n.d.,n.d.,0 of 18
I34V+R56V+F59Q+G61I+G103T,Ctrl,n.d. / n.d. / n.d. / n.d. / n.d. / n.d.,n.d.,0 of 18
N30G+S53A+D106V,Ctrl,n.d. / n.d. / n.d. / n.d. / n.d. / n.d.,n.d.,0 of 18
F59A+S63Q,Ctrl,0.63 / 1.16 / 1.71 / n.d. / 1.53 / 1.07,1.22,1 of 18 (1.90)
T28K+F105D,Ctrl,n.d. / n.d. / n.d. / n.d. / n.d. / n.d.,n.d.,0 of 18
A102D,Ctrl,n.d. / 0.54 / n.d. / 0.67 / n.d. / 0.81,0.67,0 of 18
T28Q+L29P+F59A,Ctrl,n.d. / n.d. / n.d. / n.d. / 3.48 / n.d.,3.48,0 of 18
R56S+A101E+T104Q,Ctrl,1.73 / n.d. / n.d. / n.d. / n.d. / n.d.,1.73,1 of 18 (1.69)
F27T+T28M+L29V,Ctrl,n.d. / n.d. / n.d. / n.d. / n.d. / 2.40,2.40,0 of 18
S31K+R100L+A102I,Ctrl,n.d. / n.d. / n.d. / n.d. / n.d. / n.d.,n.d.,1 of 18 (3.64)
T28R+N30D+R56I+A101D,Ctrl,n.d. / n.d. / n.d. / n.d. / 2.49 / 1.80,2.14,0 of 18

Again, the first 4 entries without any signal:

{"changes": "N30S+S31D+R100P+A101S+A102S+G103A", "group": "Ctrl", "log10 Kd, replicates": "n.d. / n.d. / n.d. / n.d. / n.d. / n.d.", "mean log10 Kd (nM)": "n.d.", "empty controls": "0 of 18"}
{"changes": "S53A+R56V+V64Y+R100S+G103I", "group": "Ctrl", "log10 Kd, replicates": "n.d. / n.d. / n.d. / n.d. / n.d. / n.d.", "mean log10 Kd (nM)": "n.d.", "empty controls": "0 of 18"}
{"changes": "S53A+G99W+S107H", "group": "Ctrl", "log10 Kd, replicates": "n.d. / n.d. / n.d. / n.d. / n.d. / n.d.", "mean log10 Kd (nM)": "n.d.", "empty controls": "1 of 18 (3.51)"}
{"changes": "R100E+A101F", "group": "Ctrl", "log10 Kd, replicates": "n.d. / n.d. / n.d. / n.d. / n.d. / n.d.", "mean log10 Kd (nM)": "n.d.", "empty controls": "0 of 18"}